{"sequences": {"note": "Protein sequences, listed by entry. Tags and fused reporters are not part of them. Lines headed by an entry give the natural chain unless they say otherwise; changes in a name come on top.", "UniProt Q16186": "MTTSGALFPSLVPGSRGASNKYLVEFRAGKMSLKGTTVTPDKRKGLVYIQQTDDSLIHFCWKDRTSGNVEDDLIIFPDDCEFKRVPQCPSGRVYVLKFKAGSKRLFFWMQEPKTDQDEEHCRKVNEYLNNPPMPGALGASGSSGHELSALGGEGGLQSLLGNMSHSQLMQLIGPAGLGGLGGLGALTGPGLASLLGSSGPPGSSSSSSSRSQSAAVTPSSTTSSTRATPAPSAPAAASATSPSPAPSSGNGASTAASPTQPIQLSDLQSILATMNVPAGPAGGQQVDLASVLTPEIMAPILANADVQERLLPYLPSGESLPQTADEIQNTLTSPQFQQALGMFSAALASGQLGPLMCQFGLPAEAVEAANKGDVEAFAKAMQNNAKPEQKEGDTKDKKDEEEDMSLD"}, "source": "paper PMC7680388", "about": "(Cell chemical biology, 2020)", "origin": "cited, not measured here", "target": "Rpn13 (Homo sapiens, UniProt Q16186)", "conditions": "read-out: affinity of Rpn13 for Ubiquitin; ref Hill et al 2017; cited from earlier work", "data": [{"substance": "Ubiquitin", "values": [{"measurement": "Kd", "value": "~40", "unit": "µM"}]}]}
